# US11229629B2, “Inhibitors of mitochondrial fission” (Queen's University at Kingston, priority 2019, dated 2022)
# Assays:
# A549 = assay: Apoptosis assay (Annexin V/PI) in A549 cells; type: cell-based, human; conditions: mdivi-1 25 μM, Drpitor1 1.0 μM, Drpitor1a 0.5 μM, FIG. 6B
# Method: Apoptosis assay: Cell apoptosis was determined by the Annexin V+ propidium iodide (PI) method using Alexa Fluor 488 Annexin V/Dead Cell Apoptosis Kit (available from ThermoFisher Scientific). A549 cells were collected 48 hours after compound treatment. Percentage of Annexin V (+) and PI (+) cells was determined using SONY S[…] flow cytometer and compared between control group and treatment groups.
# [1] = test system: right ventricle ischemia-reperfusion injury; conditions: 0.5 μM in perfusate; ex vivo rat heart
SMILES,Baseline apoptosis rate (percentage of cells with positive Annexin V staining) (A549),Right ventricular end-diastolic pressure (RVEDP) after two periods of IR [1]
O=C1c2ccncc2C(=O)c2c1[nH]c1ccccc21 [Drpitor1a],significantly higher,did not manifest the increase in right ventricular end-diastolic pressure
"COc1cc(-n2c(=S)[nH]c3ccccc3c2=O)c(Cl)cc1Cl [mdivi-1, mitochondrial division inhibitor 1, reference compound]",significantly higher,
